The values that follow come from patent publication US10414811B2, “Protease-resistant lipidated GLP-1 analogs” (MEDIMMUNE LIMITED, priority 2015, dated 2019).

By UniProt entry, the sequences of proteins in these tests, tags left out. Where a name states a change or a piece, a line headed by the entry shows the natural chain unless it says otherwise.
UniProt P08473: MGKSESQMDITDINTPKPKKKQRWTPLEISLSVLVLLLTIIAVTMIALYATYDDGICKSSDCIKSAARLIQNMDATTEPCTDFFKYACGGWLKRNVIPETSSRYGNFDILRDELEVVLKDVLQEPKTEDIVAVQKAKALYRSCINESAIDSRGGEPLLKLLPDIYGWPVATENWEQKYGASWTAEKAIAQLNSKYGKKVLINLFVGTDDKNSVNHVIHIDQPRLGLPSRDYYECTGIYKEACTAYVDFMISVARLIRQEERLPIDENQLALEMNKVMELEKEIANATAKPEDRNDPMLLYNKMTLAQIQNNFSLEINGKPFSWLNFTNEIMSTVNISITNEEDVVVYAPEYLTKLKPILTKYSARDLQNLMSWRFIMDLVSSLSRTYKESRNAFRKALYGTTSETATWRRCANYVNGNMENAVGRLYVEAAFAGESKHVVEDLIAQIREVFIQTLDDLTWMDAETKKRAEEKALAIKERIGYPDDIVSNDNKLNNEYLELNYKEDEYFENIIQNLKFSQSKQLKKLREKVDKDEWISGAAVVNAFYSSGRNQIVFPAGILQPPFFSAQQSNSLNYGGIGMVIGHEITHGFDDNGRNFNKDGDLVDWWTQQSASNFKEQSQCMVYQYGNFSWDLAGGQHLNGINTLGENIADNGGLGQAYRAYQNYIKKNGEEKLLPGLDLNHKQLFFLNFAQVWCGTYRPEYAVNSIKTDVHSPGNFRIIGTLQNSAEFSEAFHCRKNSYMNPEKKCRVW

As a reminder, the amount remaining is what is left of the initial amount, in per cent.

In the series the target is T1, Neprilysin (Homo sapiens, UniProt P08473).
T1 construct: purchased R&D Systems 1182-ZNC-010
In words: Proteolytic resistance to neprilysin (% remaining peptide, RP-HPLC AUC). Particulars: 37° C., pH 8.3. It is filed as in vitro ADME. The source says: Ratio enzyme (units):peptide (μmoles)˜1:33. […] Ratio enzyme (units):peptide (μmoles)˜1:2.5.

In the case of `CCCCCCCCCCCC(=O)N[C@@H](CCC(=O)NCCOCCOCC(=O)NCCOCCOCC(=O)NCCCC[C@H](NC(=O)[C@H](C)NC(=O)[C@@H](NC(=O)[C@H](Cc1ccccc1)NC(=O)[C@H](CCC(=O)O)NC(=O)[C@](C)(CCCCN)NC(=O)[C@H](C)NC(=O)[C@H](C)NC(=O)[C@H](CCC(=O)O)NC(=O)CNC(=O)[C@H](CCC(=O)O)NC(=O)[C@H](CCCCNC(=O)COCCOCCNC(=O)COCCOCCNC(=O)CC[C@H](NC(=O)CCCCCCCCCCC)C(=O)O)NC(=O)[C@H](Cc1ccc(O)cc1)NC(=O)[C@H](CO)NC(=O)[C@](C)(CO)NC(=O)[C@@H](NC(=O)[C@H](CC(=O)O)NC(=O)[C@H](CO)NC(=O)[C@@H](NC(=O)[C@](C)(Cc1ccccc1)NC(=O)[C@H](CO)NC(=O)CNC(=O)[C@H](CCC(=O)O)NC(=O)C(C)(C)NC(=O)[C@@H](N)Cc1c[nH]cn1)[C@@H](C)O)C(C)C)[C@@H](C)CC)C(=O)N[C@H](C(=O)N[C@H](C(=O)N[C@@H](CCC(=O)O)C(=O)NCC(=O)NCC(N)=O)C(C)C)C(C)C)C(=O)O` [compound 269], the fraction remaining at 2 h (recombinant neprilysin, t = 2 hr) stood at 93.8%. With “H-Aib^2-EGTFTSDVSSYLEGQAAK(ε-(PEG)2-(PEG)2-γE-stearate)EFIAWLVRGRG-acid [Semaglutide, reference compound]”, under “t = 0”, the “Percentage remaining peptide (AUC at specified time-point by RP-HPLC) upon incubation with neprilysin, t = 0” value came to 100%.
